Measurements reported in patent US8906844B2 (SYNTONIX PHARMACEUTICALS, dated 2014).

Sequences of proteins named here, by UniProt entry; tags and fusion partners are left off. Residues count along the entry.
UniProt P55899, 24-297 limits assumed, chain 1 of 2: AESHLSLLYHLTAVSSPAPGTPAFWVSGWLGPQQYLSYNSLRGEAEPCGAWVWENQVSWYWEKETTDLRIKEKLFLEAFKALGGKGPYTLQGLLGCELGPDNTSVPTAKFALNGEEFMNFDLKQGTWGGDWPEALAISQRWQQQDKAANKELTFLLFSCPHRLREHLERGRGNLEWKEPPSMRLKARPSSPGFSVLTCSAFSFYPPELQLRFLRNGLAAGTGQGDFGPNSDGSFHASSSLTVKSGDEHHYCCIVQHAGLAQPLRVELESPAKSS

Target: T1, soluble human FcRn (shFcRn) (human, UniProt P55899 24-297; P61769 21-119, biotinylated with Sulfo-NHS-LC-Biotin in the ELISA; amine-coupled to a CM5 chip in SPR)
T1 construct: also called biotinylated shFcRn
Assay: competition ELISA vs human IgG
Description: The wells were coated with 100 μl/well of 1 μg/ml biotinylated-shFcRn in Buffer A. The plate was sealed and incubated at 37° C. for 2 hours. Afterwards, the plate was washed with 200 μl/well of Buffer B (Buffer B: 100 mM MES pH 6, 150 mM NaCl, 0.5% BSA IgG-free (Jackson ImmunoResearch, West Grove, Pa.), 0.05% Tween-20). […] To allow for mixing, the plate was rocked for 2 minutes, sealed and incubated at 37° C. for 2 hours. […] The plate was covered, incubated for 30 minutes at room temperature and washed 4 times with 200 μl/well of ice-cold buffer B. SureBlue TMB substrate solution (100 μl/well, KPL, Gaithersburg, Md.) was added and the plate was allowed to incubate at room temperature until color developed, which took 5 to 10 minutes. Once color developed, 100 μl/well of TMB stop solution (KPL, Gaithersburg, Md.) was added and the absorbance was measured at 450 nm.

- IC50: 22 µM
B1: Peptide No. 203 (peptide)
peptide: QRFXTGHFXPLYPCNGP
modifications: Pen4; D-Phe9; disulfide; C-terminal amide
